The source of these data is article PMC5963591, “Bitopic Binding Mode of an M1 Muscarinic Acetylcholine Receptor Agonist Associated with Adverse Clinical Trial Outcomes” (Molecular Pharmacology, 2018).

Amino acid sequences for entries named in this document (tags omitted).
UniProt P11229, whole entry Y106C/A196G: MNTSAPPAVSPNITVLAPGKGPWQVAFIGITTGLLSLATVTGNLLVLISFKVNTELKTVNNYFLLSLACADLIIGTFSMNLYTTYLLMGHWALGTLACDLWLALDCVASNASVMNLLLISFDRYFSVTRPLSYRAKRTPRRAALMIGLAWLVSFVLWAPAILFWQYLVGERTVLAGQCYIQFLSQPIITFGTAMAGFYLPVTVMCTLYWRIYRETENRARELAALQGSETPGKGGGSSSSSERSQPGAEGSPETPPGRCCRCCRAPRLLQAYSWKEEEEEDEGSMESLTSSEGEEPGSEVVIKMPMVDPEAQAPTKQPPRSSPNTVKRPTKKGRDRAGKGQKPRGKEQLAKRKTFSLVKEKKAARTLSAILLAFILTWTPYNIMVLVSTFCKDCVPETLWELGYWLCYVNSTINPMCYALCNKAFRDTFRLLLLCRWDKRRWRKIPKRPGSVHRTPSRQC

For assay [1], the target named is T1, human M1 mAChR (Homo sapiens, UniProt P11229). Particulars: ref Ma et al., 2009; Butcher et al., 2016; cited from earlier work.
The target in the next assay is T2, humanized M1 DREADD (Homo sapiens, UniProt P11229, A196G/Y106C).
T2 construct: expressed in transfected cells; host or cells: CHO Flp-In
The experiment in a line: IP1 accumulation and ERK1/2 phosphorylation at M1 DREADD, CHO Flp-In cells. The assay is classed as cell-based.

A further assay concerns the target T3, human M1 receptor (Homo sapiens, UniProt P11229).
T3 construct: expressed in transfected cells; host or cells: CHO Flp-In
The assay is described as follows: ERK1/2 phosphorylation, CHO Flp-In human M1 cells. It counts as cell-based.

Assay [2] addresses T1, human M1 mAChR. Particulars: 20 nM [^3H]-GSK1034702.
Assay [3] has as its target T1, human M1 mAChR. The assay is described as follows: IP-One (IP1) accumulation assay, CHO Flp-In human M1 cells. It counts as cell-based. Details: expressed in transfected cells; host or cells: CHO Flp-In.

`COc1ccc(Cn2cc(C(=O)O)c(=O)c3ccccc32)cc1` [BQCA, benzyl quinolone carboxylic acid, reference compound]: the “potentiation of ACh affinity” value at human M1 mAChR [1] is recorded as “approximately 100 fold”.

Consider `CCCCCCOc1nsnc1C1=CCCN(C)C1` [Xanomeline, xanomeline], for which the “potency and efficacy at the M1 DREADD compared with the wild-type receptor” value at humanized M1 DREADD is “significant reduction in potency”. Further, at human M1 receptor, the “ERK1/2 Phosphorylation Log10(τ/KA)” value is recorded as 7.1 ± 0.3 and the “ERK1/2 Phosphorylation ΔLog10(τ/KA)” value came out at 0.0 ± 0.3. For the same molecule, the “displacement of specific [^3H]-GSK1034702 binding” value on human M1 mAChR [2] was “only partially displaced”. Moreover, the “IP1 Emax” value at human M1 mAChR [3] (CHO Flp-In human M1 cells) was 98.0 ± 1.5. Further, the “IP1 Accumulation ΔLog10(τ/KA)” value on human M1 mAChR [3] (normalized to reference ligand ACh) worked out at 1.1 ± 0.1. Moreover, on human M1 mAChR [3] (transduction coefficient, wild-type M1 mAChR), the “IP1 Accumulation Log10(τ/KA)” value was 8.2 ± 0.1.
